Compound activity (PubChem)
Vif imaging: HIV Vif inhibition; HEK293T cells, Vif self-association by quenched fluorescence, imaging, 24 h; inhibition, % at 7.49 µM; 340,000 tested, 0.35% active; in the data active = inhibition above about 50%, passing the limit was not always enough
UUG fidelity: yeast start codon fidelity modulation; AID 602363; activity score, % at 18.7 µM; S. cerevisiae UUG-firefly luciferase reporter, luminescence/redox ratio; 0.13% of 350,000 active;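 active means replicate mean at a twofold rise or more, about +100% in these data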;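 further: firefly luciferase made from a UUG start codon reports start codon fidelity; reporter light over untreated wells divided by growth signal over untreated wells; some hits fall short of that in this replicate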
PglD DTNB: PglD (C. jejuni) enzyme inhibition | purified PglD enzyme, DTNB colorimetric CoA detection | inhibition, % at 12.5 µM | 360,000 tested, 0.098% active | AID 602405; in the data active = inhibition above about 16%, passing the limit was not always enough
CAL PDZ FP-1: blocks peptide binding to human CAL PDZ domain; purified CAL PDZ, TMR-peptide fluorescence polarization, 1 h; inhibition, % at 20 µM; 330,000 tested, 0.02% active; AID 504414;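 active = highest replicate inhibition of at least 40%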;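 also: plate controls were DMSO neutral control wells for no effect and unlabeled competitor peptide control wells for full effect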
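Assay system – tagged CAL PDZ protein CerCALP, purified · Timing – 1 h at RT · Compound – single point, 20 µM · Measured by – fluorescence polarization from S- and P-plane intensities, G-factor corrected · Evaluation – inhibition from polarization loss · Probe or stimulus – TMR reporter peptide T*-PRC34 · Buffer or medium – pH 7.4 phosphate-saline buffer, reducing agent, detergent, IgG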
ARNT-TACC3 inh: disrupts binding between human ARNT and TACC3; Q9Y6A5; AlphaScreen His-ARNT PAS-B/GST-TACC3 binding, luminescence; TACC3 fragment carries E629A point mutation; inhibition, % at 9.99 µM; 390,000 tested, 0.66% active; AID 623870;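 active = mean inhibition of replicates at least 50% and at least half of replicates each reaching 50%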;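 also: 0% = complete ARNT plus TACC3 wells and 100% = ARNT alone without TACC3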
CAL PDZ FP-2: CAL PDZ (human) peptide binding inhibition; Q9HD26; purified CAL PDZ, TMR-peptide fluorescence polarization, 1 h; inhibition, % at 24.9 µM; 300,000 tested, 0.92% active;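 active = mean inhibition of at least 30% with at least half of replicates also reaching 30%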;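 also: 0% = DMSO neutral control and 100% = excess unlabeled competitor peptide PRC23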
The depositor's hits bear a star. A selection: hits, their analogues and other compounds. The true share with any hit is near 1.6%.

For C[C@H]1CN([C@@H](C)CO)C(=O)c2cc(NC(=O)Cn3cnnn3)ccc2O[C@H]1CN(C)CC1CC1 the results were UUG fidelity -2.5, PglD DTNB -1.5 and ARNT-TACC3 inh 3.1.
For O=C(C[C@@H]1C[C@@H]2c3cc(NC(=O)NC4CCCC4)ccc3O[C@@H]2[C@@H](CO)O1)NCc1cc(F)ccc1F the results were UUG fidelity -7.4, PglD DTNB 7.0 and ARNT-TACC3 inh -5.8.
`O=C(CCCCn1ccc(=O)[nH]c1=O)Nc1ccc(C(=O)O)c(O)c1` gave Vif imaging 8.1, UUG fidelity -14.2, PglD DTNB -1.4, CAL PDZ FP-1 0.1, ARNT-TACC3 inh -1.7 and CAL PDZ FP-2 5.9.
`O=C(CCCCn1ccc(=O)[nH]c1=O)Nc1ccc(O)c(C(=O)O)c1` gave Vif imaging 78.1*, UUG fidelity 28.2, PglD DTNB 2.9, CAL PDZ FP-1 -0.7, ARNT-TACC3 inh -13.5 and CAL PDZ FP-2 3.1.
CC(=O)N(C)C[C@H]1Oc2ncc(C#Cc3ccccc3F)cc2C(=O)N([C@@H](C)CO)C[C@@H]1C was read as UUG fidelity -4.3, PglD DTNB -2.3 and ARNT-TACC3 inh -5.5.
Screening O=C(Nc1ccc2c(c1)CCC2)c1ncoc1-c1ccccc1F returned Vif imaging -19.5, UUG fidelity 5.1, PglD DTNB -0.6, CAL PDZ FP-1 -1.2 and CAL PDZ FP-2 68.7*.
`CCc1ccc2nc3n[nH]c(N)c3cc2c1` gave Vif imaging 1.9, UUG fidelity -27.9, PglD DTNB -3.2, CAL PDZ FP-1 -0.2, ARNT-TACC3 inh -2.3 and CAL PDZ FP-2 -1.5.
For Nc1[nH]nc2nc3ccccc3cc12 the results were Vif imaging -4.7, UUG fidelity -16.1, PglD DTNB 1.0, CAL PDZ FP-1 -0.3, ARNT-TACC3 inh 3.9 and CAL PDZ FP-2 46.6*.
`C[C@H]1CCCCO[C@H](CN(C)S(=O)(=O)c2cn(C)cn2)[C@@H](C)CN([C@@H](C)CO)C(=O)c2cc(NS(=O)(=O)c3ccc(F)cc3)ccc2O1` gave UUG fidelity 22.6, PglD DTNB -2.8 and ARNT-TACC3 inh 4.5.
CSCCC1COC(c2cccs2)=N1 (stereo not drawn) was read as Vif imaging -6.4, CAL PDZ FP-1 -1.4, ARNT-TACC3 inh -12.6 and CAL PDZ FP-2 31.0*.
For COc1ccc(CN2[C@@H](CO)[C@@H]3c4ccccc4N(C(=O)c4ccccc4)C[C@@H]32)cc1 the results were UUG fidelity 1.2, PglD DTNB -9.4 and ARNT-TACC3 inh 5.0.
`O=C(NC1CCCCC1)C(=S)NCCc1ccccc1` gave Vif imaging 2.8, UUG fidelity -4.3, PglD DTNB 0.6, CAL PDZ FP-1 -1.7, ARNT-TACC3 inh -0.6 and CAL PDZ FP-2 42.9*.
For Cc1noc(C)c1NC(=O)N(C)C[C@H]1Oc2ccc(NC(=O)CCC(F)(F)F)cc2C(=O)N([C@H](C)CO)C[C@H]1C the results were PglD DTNB -3.7 and ARNT-TACC3 inh 27.4.
Screening O=C(CNC(=O)C1COc2ccccc2O1)N/N=C/c1ccc(O)cc1O (stereo not drawn) returned Vif imaging -7.3, CAL PDZ FP-1 -2.3, ARNT-TACC3 inh 93.9* and CAL PDZ FP-2 -5.4.
`O=C(N/N=C\c1cccc([N+](=O)[O-])c1O)C1COc2ccccc2O1` (stereo not drawn) gave Vif imaging -4.8, UUG fidelity -52.5, PglD DTNB -6.6, CAL PDZ FP-1 -0.3, ARNT-TACC3 inh 62.9* and CAL PDZ FP-2 -3.0.
COc1cc([N+](=O)[O-])cc(/C=N\NC(=O)C2COc3ccccc3O2)c1O (stereo not drawn) was read as Vif imaging -2.8, CAL PDZ FP-1 -0.6, ARNT-TACC3 inh 71.6* and CAL PDZ FP-2 -3.1.
`O=[N+]([O-])c1cccc(C=NNc2ccc3ccccc3n2)c1O` gave Vif imaging 31.4, CAL PDZ FP-1 1.1, ARNT-TACC3 inh 71.9* and CAL PDZ FP-2 -7.1.
CC(C)NC(=O)N(C)C[C@@H]1Oc2cc(-c3cncnc3)ccc2S(=O)(=O)N([C@H](C)CO)C[C@@H]1C was read as UUG fidelity -9.7, PglD DTNB -0.4 and ARNT-TACC3 inh -5.5.
For CCCN1CCC(NC(=O)Nc2cc(Cl)ccc2OC)CC1 the results were Vif imaging 9.5, CAL PDZ FP-1 -0.5, ARNT-TACC3 inh 1.3 and CAL PDZ FP-2 35.8*.

3 compounds out of the list, sorted by count of non-hydrogen atoms, largest number first.
`C[C@H]1CCCCO[C@H](CN(C)S(=O)(=O)c2cn(C)cn2)[C@@H](C)CN([C@@H](C)CO)C(=O)c2cc(NS(=O)(=O)c3ccc(F)cc3)ccc2O1` gave UUG fidelity 22.6, PglD DTNB -2.8 and ARNT-TACC3 inh 4.5.
CC(=O)N(C)C[C@H]1Oc2ncc(C#Cc3ccccc3F)cc2C(=O)N([C@@H](C)CO)C[C@@H]1C was read as UUG fidelity -4.3, PglD DTNB -2.3 and ARNT-TACC3 inh -5.5.
`O=C(N/N=C\c1cccc([N+](=O)[O-])c1O)C1COc2ccccc2O1` (stereo not drawn) gave Vif imaging -4.8, UUG fidelity -52.5, PglD DTNB -6.6, CAL PDZ FP-1 -0.3, ARNT-TACC3 inh 62.9* and CAL PDZ FP-2 -3.0.
